Test results reported in BindingDB's records for doi:10.1016/j.ejmech.2016.06.019 (Federal University of Minas Gerais, 2016).
pIC50: −log10 of the molar value.

Assay: Activation of NQO1 in human A549 cells assessed as decrease in cell survival incubated for 2 hrs measured after 7 days in presence of NQO1 inhibitor dicoumarol by Hoechst 33258 staining based assay

## CC1(C)CCC2=C(O1)c1ccccc1C(=O)C2=O [R115 (Reactive Blue 2)]
  pIC50: < 5.00
